## scFv variants of Ab-91 (heavy chain) against a SARS-CoV-2 spike peptide

From the AlphaSeq antibody data of Engelhart et al. 2022 (doi:10.1038/s41597-022-01779-4), copy in the FLAb collection.

Antigen: PDVDLGDISGINAS, a 14-residue peptide of the SARS-CoV-2 spike HR2 region.

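The parent was found by panning a naive human phage display library on the peptide. In library AAYL51, one, two or three CDR residues were substituted; doubles and triples were drawn at random. Affinity was read by AlphaSeq, a pooled yeast mating assay with surface-displayed partners. After mating in shaken culture at 30 °C for 16 h, diploids were selected and their barcode pairs sequenced. The ratio of observed to expected reads was calibrated, replicate by replicate, on BCL2-family standards whose Kd was known from biolayer interferometry. There are three technical replicates.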

The variants keep the light chain, the linker and the frameworks of Ab-91 (scFv order VL, a (GGGGS)3 linker, VH).
VL: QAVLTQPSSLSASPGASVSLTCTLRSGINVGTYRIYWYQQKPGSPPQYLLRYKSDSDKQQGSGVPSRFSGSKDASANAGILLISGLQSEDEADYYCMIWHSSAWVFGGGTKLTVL
VH: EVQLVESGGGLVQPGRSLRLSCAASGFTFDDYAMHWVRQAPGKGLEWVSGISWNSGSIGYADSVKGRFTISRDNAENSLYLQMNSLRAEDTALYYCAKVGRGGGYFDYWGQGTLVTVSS

Each variant is given by its three heavy chain CDRs, as the data file delimits them; those of the parent are GFTFDDYAMH, GISWNSGSIGYADSVK, VGRGGGYFDY.
This list gathers variants with a substitution at Y60 (VH, numbered from residue 1).
The read-out is the apparent dissociation constant on a log10 scale (nM): the lower, the stronger.
The mean shown is taken over the replicates in which the pair was detected.
Where no diploid with the target was found in that replicate, the entry reads "nd": below detection, most likely a poor binder, though not proof of it.
In this assay the parent's reference entry averaged 1.86; its copy inside this library read 0.88.
Nonspecific signal, from three strains lacking the peptide, appeared in 21% of pairings of library AAYL51, centred on 4.54 (5% of these signals below 3.26); values are not corrected for it. For each scFv, signals with the empty controls are counted beside the result.

With GFTDDDYAMH / GIAWNSGSIGGADSVK / VGRGGGYFDY the result was nd, nd, nd (controls 1 of 9).
With WFTFDDYAMH / GISGNSGSIGPADSVK / VGRGGGYFDY the result was nd, nd, nd (controls 1 of 9).
With QFSFDDYAMH / GISWNSGSIGRADSVK / VGRGGGYFDY the result was nd, nd, nd (controls 0 of 9).
With GFTFDDYAML / KISWNSGSIGNADSVK / VGRGGGYFDY the result was 4.27, nd, 4.51 (mean 4.39; controls 6 of 9).
With GFTFDDYAMH / GISWNSVSIGPADSVK / VGRGGGYFDY the result was nd, 6.40, nd (controls 3 of 9).
With SFTFSDYAMH / GISWNSGSIGHADSVK / VGRGGGYFDY the result was 4.94, nd, 5.06 (mean 5.00; controls 2 of 9).
With GFTFDDYAMH / GFSWNSGSIGNADSVK / VGRGGGYCDY the result was nd, nd, nd (controls 2 of 9).
With IFTFDDYAMH / GISWNSGSIGHADSVK / VGRGGGYFCY the result was nd, nd, nd (controls 0 of 9).
With GFTFDDGAMH / GISWNSGSIGQADSVK / VGRGGGAFDY the result was nd, nd, nd (controls 1 of 9).
With GFTFDDYAMH / GISWNSGSIGSADSVK / VGRGGVYFDY the result was nd, nd, nd (controls 1 of 9).
With GFTFDDYAMH / GISWYSGGIGWADSVK / VGRGGGYFDY the result was nd, nd, nd (controls 0 of 9).
With GFTFDDIAMH / GISWNSGSIGLADSVA / VGRGGGYFDY the result was nd, nd, nd (controls 0 of 9).
With GFTFDDYAMH / GISWNSGSIGCADSVK / VGRGGGYSDY the result was nd, nd, nd (controls 2 of 9).
With GFTFDDYAMH / KISWNSGCIGEADSVK / VGRGGGYFDY the result was nd, nd, nd (controls 1 of 9).
With EFTFDDYAMH / GHSWNSGSIGWADSVK / VGRGGGYFDY the result was nd, nd, nd (controls 2 of 9).
With GFTFDDYAMH / GISWNSGSIGNADSVK / VGRGGGYRDY the result was nd, nd, nd (controls 1 of 9).
With GFTFDDCAMH / GISWNSGSIGTADRVK / VGRGGGYFDY the result was 4.87, 3.57, 4.05 (mean 4.16; controls 6 of 9).
With MHTFDDYAMH / GISWNSGSIGFADSVK / VGRGGGYFDY the result was nd, nd, nd (controls 1 of 9).
With GFTFDDYAMH / GIVWNSGSIGHADSVK / VGRGGGYFLY the result was 4.75, 6.56, nd (mean 5.66; controls 6 of 9).
With GFIFDDYAMH / GISWNSGSIGVADSVK / VGRGEGYFDY the result was nd, nd, nd (controls 1 of 9).
With GFTFDDYWMH / GISWNSGSIGFADSVK / VGRGGTYFDY the result was nd, nd, nd (controls 1 of 9).
With GFDFDDYAMH / GISWNMGSIGCADSVK / VGRGGGYFDY the result was nd, nd, 4.67 (controls 6 of 9).
With GFTFDDYAMV / GISWNSGSIGIADEVK / VGRGGGYFDY the result was nd, nd, nd (controls 0 of 9).
With GFTFDDYAMK / GISENSGSIGDADSVK / VGRGGGYFDY the result was nd, nd, 3.00 (controls 2 of 9).
With GFTFDDYAMH / GIWWNSGSIGIADSVK / PGRGGGYFDY the result was 4.86, 5.32, 6.09 (mean 5.42; controls 8 of 9).
With GFTFDDYAMH / GISWNSGSIGCADSQK / VGRGGGYFDY the result was nd, nd, nd (controls 0 of 9).
With GFTFDDLAMH / GISWNSGSIGAADSVK / VGRGWGYFDY the result was nd, 3.76, nd (controls 3 of 9).
With AFTFDDYAMH / CISWNSGSIGNADSVK / VGRGGGYFDY the result was 4.85, 5.01, nd (mean 4.93; controls 5 of 9).
With IFTFDDYAMH / GISWNSGSIGTADSVK / VGRGGGYFMY the result was nd, nd, nd (controls 0 of 9).
With GFTFDDYAMH / GISQNSGSIGFADSVK / VGRGGGYFVY the result was nd, 6.15, nd (controls 7 of 9).
With GFTFDDYAMH / GISWNSGPIGLADSVK / VGRGCGYFDY the result was 4.04, nd, nd (controls 2 of 9).
With GFTFDDYAMH / GISWNSGSIGFAQSVK / VGVGGGYFDY the result was nd, nd, nd (controls 0 of 9).
With GFTFDDYAMH / GISWNSGSISDADSVY / VGRGGGYFDY the result was 4.60, 4.20, nd (mean 4.40; controls 4 of 9).
With GFTFDDYAMH / GISQNSGSIGSADSVK / VGAGGGYFDY the result was 3.17, 4.04, nd (mean 3.60; controls 0 of 9).
With GFTFDDYCMH / GISWNSGSIGDADSVK / VGDGGGYFDY the result was nd, 5.51, nd (controls 2 of 9).
With GFTFDDYAMH / GISWNSASIGPADSVK / VGRGGGYFDY the result was nd, nd, nd (controls 2 of 9).
With KFTFDDYAMH / GISWNSGSIGSADSVK / VGRGGGYFDN the result was nd, nd, nd (controls 0 of 9).
With GAQFDDYAMH / GISWNSGSIGPADSVK / VGRGGGYFDY the result was 3.91, nd, nd (controls 1 of 9).
With LFTFDDYAMG / GISWNSGSIGEADSVK / VGRGGGYFDY the result was nd, nd, nd (controls 2 of 9).
With GFTFDDYAMH / GISWNSGSIGDAISVK / VGRGGGYFDY the result was nd, nd, nd (controls 0 of 9).